From patent US7989466B2, “Methods to inhibit or augment an inflammatory response” (Cambridge Enterprise Limited, priority 1999, dated 2011)

Amino acid sequences for entries named in this document (tags omitted).
UniProt P08913, whole entry: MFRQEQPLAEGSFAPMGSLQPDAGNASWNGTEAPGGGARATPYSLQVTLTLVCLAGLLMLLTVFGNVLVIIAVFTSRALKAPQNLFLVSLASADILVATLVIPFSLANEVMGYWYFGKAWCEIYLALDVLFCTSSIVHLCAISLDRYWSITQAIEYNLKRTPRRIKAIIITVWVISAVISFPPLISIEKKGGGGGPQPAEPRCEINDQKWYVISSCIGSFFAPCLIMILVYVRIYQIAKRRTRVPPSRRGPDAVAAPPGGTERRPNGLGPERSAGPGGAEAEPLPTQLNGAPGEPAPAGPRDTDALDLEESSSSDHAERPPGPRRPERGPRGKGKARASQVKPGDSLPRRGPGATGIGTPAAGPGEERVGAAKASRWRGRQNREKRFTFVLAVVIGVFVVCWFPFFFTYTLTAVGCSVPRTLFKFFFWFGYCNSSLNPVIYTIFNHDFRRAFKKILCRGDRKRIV

Columns and labels:
[1] = biological target: T1, Duffy Antigen Receptor for Chemokines (DARC) (Homo sapiens, UniProt Q16570); experiment: DARC binding: competition with 125I-MCP-1 on red blood cells; settings: estimated ka for binding to red blood cells divided by average inhibitory ED50 versus each of the chemokines
T1 sequence (Q16570 1-336): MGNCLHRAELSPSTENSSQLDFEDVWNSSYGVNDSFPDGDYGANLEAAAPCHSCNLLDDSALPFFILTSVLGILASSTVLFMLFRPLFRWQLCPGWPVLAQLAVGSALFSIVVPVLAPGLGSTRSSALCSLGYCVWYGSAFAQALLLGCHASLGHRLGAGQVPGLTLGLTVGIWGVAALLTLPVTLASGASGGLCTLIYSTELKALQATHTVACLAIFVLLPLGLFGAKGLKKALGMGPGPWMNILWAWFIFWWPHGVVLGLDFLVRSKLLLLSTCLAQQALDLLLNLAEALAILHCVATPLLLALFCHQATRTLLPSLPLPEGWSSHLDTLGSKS

α2-adrenoceptors = biological target: T2, α2-adrenoceptors (Homo sapiens, UniProt P08913); experiment: α2-adrenoreceptor membrane binding (3H-RS-79948-197); settings: 100 μM highest concentration tested
T2 construct: other: 100 μM highest concentration tested

Row | Compound | DUFFY SELECTIVITY (DARC specificity ratio) [1] | ED50 for competition of RS79943 binding to α2-adrenoceptors (α2-adrenoceptors)
1 | NCCCC[C@H](NC(=O)[C@H](CCC(N)=O)NC(=O)[C@@H](N)CCCCN)C(=O)O [KQK] | 22.34 | –
2 | O=C1CCC(N2C(=O)c3ccccc3C2=O)C(=O)N1 (centres unmarked) [Thalidomide, reference compound] | – | >100 µM
